Assay [1] deals with T1, D2 receptors (Homo sapiens, UniProt P14416). Nature of the assay: GTPγS binding assay at D2. In kind it is biochemical. Also noted: expressed in transfected cells. The note with it: negative logarithm of EC50 in molar; HEK293T membranes; mean ± SEM; read-out: GTPγS pEC50 (converted). In general terms: GTPγS resists hydrolysis and so accumulates on activated G proteins.
The target of assay [2] is T1, D2 receptors. Kind of assay: R-SAT functional assay at D2. The note with it: R-SAT pEC50, Table 2; negative logarithm of EC50 in molar; NIH3T3 cells; mean ± SEM.
For assay [3], the target named is T1, D2 receptors. Nature of the assay: BRET2 beta-arrestin-2 recruitment assay at D2. The note with it: negative logarithm of EC50 in molar; HEK293T cells; mean ± SEM; read-out: BRET2 pEC50 (converted). The arrangement: expressed in transfected cells; host or cells: HEK-293T. In kind it is cell-based. Background: BRET reads energy transfer from a luciferase to a nearby fluorophore.

The chains behind the UniProt entries cited, without tags or fusion partners. Where a name states a change or a piece, a line headed by the entry shows the natural chain unless it says otherwise. A line that says so, or that is headed by a name, gives the form on record, which may keep a tag or linker. Residues count along the entry.
UniProt P14416, 1-414 isoform P14416-2: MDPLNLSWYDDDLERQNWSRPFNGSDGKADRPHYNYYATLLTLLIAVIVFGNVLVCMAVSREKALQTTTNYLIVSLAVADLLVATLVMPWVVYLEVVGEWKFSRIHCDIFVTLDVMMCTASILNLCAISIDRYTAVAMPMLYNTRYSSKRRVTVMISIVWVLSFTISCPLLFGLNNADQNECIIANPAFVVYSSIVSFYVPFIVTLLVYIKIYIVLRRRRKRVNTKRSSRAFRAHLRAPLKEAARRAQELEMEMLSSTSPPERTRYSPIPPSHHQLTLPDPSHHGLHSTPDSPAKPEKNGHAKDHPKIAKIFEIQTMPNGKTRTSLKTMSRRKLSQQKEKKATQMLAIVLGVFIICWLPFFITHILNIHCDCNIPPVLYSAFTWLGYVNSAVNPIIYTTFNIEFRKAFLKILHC
UniProt P41595, whole entry: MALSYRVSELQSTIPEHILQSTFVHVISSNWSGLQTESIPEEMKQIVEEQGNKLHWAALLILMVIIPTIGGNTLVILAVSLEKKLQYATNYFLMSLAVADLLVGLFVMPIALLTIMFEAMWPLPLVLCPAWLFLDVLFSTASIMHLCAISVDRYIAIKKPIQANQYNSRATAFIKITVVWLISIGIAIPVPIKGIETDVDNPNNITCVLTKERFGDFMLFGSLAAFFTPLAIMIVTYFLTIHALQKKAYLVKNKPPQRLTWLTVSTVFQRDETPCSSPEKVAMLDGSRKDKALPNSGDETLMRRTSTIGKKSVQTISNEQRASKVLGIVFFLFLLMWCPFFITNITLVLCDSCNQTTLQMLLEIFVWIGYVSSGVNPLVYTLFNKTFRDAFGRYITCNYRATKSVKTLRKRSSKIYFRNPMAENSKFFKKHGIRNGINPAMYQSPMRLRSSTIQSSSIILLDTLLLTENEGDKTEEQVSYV
UniProt P21917, with tags, fused parts or gaps DEL265-296: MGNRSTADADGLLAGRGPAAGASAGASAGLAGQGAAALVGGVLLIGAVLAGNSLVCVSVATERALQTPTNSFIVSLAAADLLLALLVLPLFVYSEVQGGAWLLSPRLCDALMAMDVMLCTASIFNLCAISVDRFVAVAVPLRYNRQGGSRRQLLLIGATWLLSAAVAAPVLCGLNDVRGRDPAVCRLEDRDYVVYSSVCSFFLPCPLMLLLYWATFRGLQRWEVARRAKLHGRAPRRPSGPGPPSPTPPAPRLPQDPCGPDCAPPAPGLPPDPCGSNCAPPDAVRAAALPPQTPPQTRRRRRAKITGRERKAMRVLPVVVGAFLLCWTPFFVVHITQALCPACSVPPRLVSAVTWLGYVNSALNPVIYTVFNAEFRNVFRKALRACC
UniProt P28223, whole entry: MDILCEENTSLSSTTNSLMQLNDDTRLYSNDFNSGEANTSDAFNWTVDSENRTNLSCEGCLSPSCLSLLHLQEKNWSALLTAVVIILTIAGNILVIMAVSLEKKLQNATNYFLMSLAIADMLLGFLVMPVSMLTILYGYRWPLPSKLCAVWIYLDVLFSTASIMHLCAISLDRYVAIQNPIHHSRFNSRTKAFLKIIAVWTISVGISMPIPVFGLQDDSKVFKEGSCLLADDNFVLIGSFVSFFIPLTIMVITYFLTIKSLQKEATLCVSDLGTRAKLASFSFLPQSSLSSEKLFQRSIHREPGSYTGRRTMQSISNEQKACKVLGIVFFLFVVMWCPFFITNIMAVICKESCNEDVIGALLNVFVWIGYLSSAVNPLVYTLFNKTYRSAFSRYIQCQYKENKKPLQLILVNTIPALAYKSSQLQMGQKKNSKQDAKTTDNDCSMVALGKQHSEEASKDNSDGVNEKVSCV

Assay [4] has as its target 5-HT2B receptors (Homo sapiens, UniProt P41595). Kind of assay: R-SAT assay 5-HT2B. In kind it is cell-based. The arrangement: expressed in transfected cells; host or cells: NIH/3T3.
Assay [5] concerns the target human D4 (variant 4.2) receptor (Homo sapiens, UniProt P21917, DEL265-296). Nature of the assay: cell-based.
In assay [6] the target is T2, human 5-HT2A receptors (Homo sapiens, UniProt P28223). Nature of the assay: R-SAT functional assay at 5-HT2A.
Assay [7] has as its target T2, human 5-HT2A receptors. Kind of assay: Phosphatidyl inositol (PI) hydrolysis assay at 5-HT2A.
Assay [8] deals with T2, human 5-HT2A receptors. Kind of assay: BRET2 beta-arrestin-2 recruitment assay at 5-HT2A.

Regarding `CCCN1CCCC(c2cccc(O)c2)C1` (single isomer, unassigned; (+)) [(+)-3-PPP, [3-(3-hydroxyphenyl)-N-n-propyl]piperidine], the EC50 in assay [1] was 79.4 nM; in assay [2] it was 39.8 nM; in assay [3] it was 5010 nM.

Take `CCCN1CCCC(c2cccc(O)c2)C1` (single isomer, unassigned; (-)) [(−)-3-PPP, [3-(3-hydroxyphenyl)-N-n-propyl]piperidine]: the EC50 is 20 nM in assay [1], 10 nM in assay [2] and 316 nM in assay [3].

`CCCN1CCC[C@H](c2cccc(S(C)(=O)=O)c2)C1` [(+)-OSU6162, (3R)-3-[3-(methylsulfonyl)phenyl]-1-propylpiperidine]: the “fold less potency at 5-HT2B receptors than (−)-OSU6162” value in assay [4] was “approximately 10 fold”.

`CCCN1CCC[C@@H](c2cccc(S(C)(=O)=O)c2)C1` [(−)-OSU6162, (3S)-3-[3-(methylsulfonyl)phenyl]-1-propylpiperidine]: the EC50 in assay [5] is above 10000 nM.

On to `CCCN1CCC[C@@H]2Cc3n[nH]cc3C[C@H]21` [Quinpirole], for which the “R-SAT Eff (%)” value in assay [6] turned out to be 131 ± 14%. Also, the EC50 in assay [6] (R-SAT pEC50) is 1260 nM. Also, in assay [7], the EC50 is 2510 nM and the “PI Hydrolysis Eff (%)” value amounted to 88 ± 13%. In assay [8], the “BRET2 Eff %” value was found to be 91 ± 5% and the EC50 was 3980 nM.

For the origin of these results see US20130197032A1, “[…] COMPOUNDS FOR THE TREATMENT OF NEUROLOGICAL AND […] DISORDERS” (A. CARLSSON RESEARCH AB, priority 2010, published 2013).
